Assays:
human 5-HT2A receptor = human 5-HT2A receptor (Homo sapiens, UniProt P28223); conditions: normalized AUC at 5-HT2C / normalized AUC at 5-HT2A, relative to 5-HT
human 5-HT2B receptor = human 5-HT2B receptor (Homo sapiens, UniProt P41595); conditions: normalized AUC at 5-HT2C / normalized AUC at 5-HT2B, relative to 5-HT

Amino acid sequences for entries named in this document (tags omitted).
UniProt P28223, whole entry: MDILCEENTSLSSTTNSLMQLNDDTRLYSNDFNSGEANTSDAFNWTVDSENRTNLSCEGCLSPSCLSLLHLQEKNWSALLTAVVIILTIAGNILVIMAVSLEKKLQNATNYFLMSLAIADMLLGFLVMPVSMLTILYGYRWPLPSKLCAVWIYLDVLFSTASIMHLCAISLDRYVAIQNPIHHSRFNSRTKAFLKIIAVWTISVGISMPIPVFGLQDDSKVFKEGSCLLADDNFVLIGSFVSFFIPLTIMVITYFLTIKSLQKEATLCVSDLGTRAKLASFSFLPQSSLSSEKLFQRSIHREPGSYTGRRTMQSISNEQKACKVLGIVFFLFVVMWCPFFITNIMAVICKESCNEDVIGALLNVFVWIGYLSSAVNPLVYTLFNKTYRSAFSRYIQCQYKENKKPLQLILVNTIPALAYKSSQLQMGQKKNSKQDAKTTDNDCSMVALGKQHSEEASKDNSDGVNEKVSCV
UniProt P41595, whole entry: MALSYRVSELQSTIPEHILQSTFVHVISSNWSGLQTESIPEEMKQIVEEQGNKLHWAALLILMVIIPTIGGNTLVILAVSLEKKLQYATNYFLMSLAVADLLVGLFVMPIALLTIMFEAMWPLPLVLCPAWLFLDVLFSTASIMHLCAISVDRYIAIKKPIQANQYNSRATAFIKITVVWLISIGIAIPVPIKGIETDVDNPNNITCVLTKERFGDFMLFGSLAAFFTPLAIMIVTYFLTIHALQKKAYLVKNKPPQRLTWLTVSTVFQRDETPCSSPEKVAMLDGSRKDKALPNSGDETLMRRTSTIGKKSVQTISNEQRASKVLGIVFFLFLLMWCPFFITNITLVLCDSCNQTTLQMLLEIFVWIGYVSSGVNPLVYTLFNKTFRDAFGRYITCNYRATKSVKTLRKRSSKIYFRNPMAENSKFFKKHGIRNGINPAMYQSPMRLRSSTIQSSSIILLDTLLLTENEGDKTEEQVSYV

Clc1cccc(N2CCNCC2)c1 [mCPP, meta-chlorophenylpiperazine]
Selectivity Ratio AUC 2C/2A (human 5-HT2A receptor): 2.1
Selectivity Ratio AUC 2C/2B (human 5-HT2B receptor): 2.1

— US7981882B2 (dated 2011)
